According to ChEMBL document CHEMBL1133453, “Further studies on nociceptin-related peptides: discovery of a new chemical template with antagonist activity on the nociceptin receptor” (J Med Chem, 2000):
pEC50, pKi: −log10 of the molar value.

By UniProt entry, the sequences of proteins in these tests, tags left out. Where a name states a change or a piece, a line headed by the entry shows the natural chain unless it says otherwise.
UniProt P35377: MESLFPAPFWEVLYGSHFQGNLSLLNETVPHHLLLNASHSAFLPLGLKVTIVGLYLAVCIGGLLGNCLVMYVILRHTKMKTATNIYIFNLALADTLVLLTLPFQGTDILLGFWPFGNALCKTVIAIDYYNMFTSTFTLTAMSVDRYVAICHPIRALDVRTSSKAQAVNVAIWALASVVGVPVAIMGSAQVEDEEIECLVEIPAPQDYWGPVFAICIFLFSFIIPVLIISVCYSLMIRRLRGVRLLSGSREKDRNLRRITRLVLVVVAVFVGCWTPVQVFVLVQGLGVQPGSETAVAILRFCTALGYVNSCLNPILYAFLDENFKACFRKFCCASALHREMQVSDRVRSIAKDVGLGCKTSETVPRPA

How the values were obtained:
[1] = target: Nociceptin receptor (Mus musculus, UniProt P35377); test: Affinity to nociceptin receptors on mouse forebrain membranes by [3H]NC-NH2 displacement.
How it was run: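 Forebrain membranes from male Swiss mice (25-30 g), homogenized in 50 mM Tris HCl, 2 mM EDTA, 100 µM PMSF, pH 7.4, then preincubated 30 min at 37 °C. Bound ligand separated by GF/C filtration. Ki obtained by nonlinear least-squares fitting.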

[2] = organism: Mus musculus; test: Potency (Emax) against electrically evoked contraction (twitch response) in mouse vas deferens; type: functional
How it was run: (§1)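 Mouse vas deferens held in Mg2+-free Krebs at 33 °C under 0.3 g resting tension. Field stimulation through platinum electrodes with supramaximal 1-ms pulses at 0.1 Hz, twitches recorded isotonically. After about 2 h equilibration, cumulative concentration-response curves built in 0.5 log steps up to 10 µM. pEC50 taken as the concentration giving half-maximal effect. Mean of at least 3 experiments.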

[3] = organism: Mus musculus; test: Compound was tested for agonistic activity against electrically evoked contraction (twitch response) in mouse vas deferens; type: functional, organism-based; how it was run: as §1

Row | pEC50 [3] | Compound | pKi [1] | Emax [2]
1 |  | C[C@H](NC(=O)CNC(=O)[C@@H](NC(=O)[C@H](Cc1ccccc1)NC(=O)CNC(=O)CNC(=O)CNCc1ccccc1)[C@@H](C)O)C(=O)N[C@@H](CCCN=C(N)N)C(=O)N[C@@H](CCCCN)C(=O)N[C@@H](CO)C(=O)N[C@@H](C)C(=O)N[C@@H](CCCN=C(N)N)C(=O)N[C@@H](CCCCN)C(N)=O | 7.00 | 
2 | 7.70 | CC(C)C[C@H](NC(=O)[C@H](CCCCN)NC(=O)[C@H](CCCNC(=N)N)NC(=O)[C@H](C)NC(=O)[C@H](CO)NC(=O)[C@H](CCCCN)NC(=O)[C@H](CCCNC(=N)N)NC(=O)[C@H](C)NC(=O)CNC(=O)[C@@H](NC(=O)[C@H](Cc1ccccc1)NC(=O)CNC(=O)CNC(=O)[C@@H](N)Cc1ccccc1)[C@@H](C)O)C(=O)N[C@@H](C)C(=O)N[C@@H](CC(N)=O)C(=O)N[C@@H](CCC(N)=O)C(N)=O [NOCICEPTIN-NH2] |  | -79%
